{"source": "patent US20130266649A1", "about": "“NOVEL PHARMACEUTICAL COMPOSITION” (priority 2010, published 2013)", "assay": "FTIH study: repeat dose (Day 15) pharmacokinetics of Compound tablets;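 also: subjects with solid tumors in a first-in-human dose-escalation study, single and repeated once-daily oral tablet dosing, some regimens starting with a loading dose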", "details": "human, repeat oral dose Day 15, fasting, mean (CV %)", "data": [{"smiles": "CC(=O)Nc1cccc(-n2c(=O)n(C3CC3)c(=O)c3c(Nc4ccc(I)cc4F)n(C)c(=O)c(C)c32)c1", "note": "[Compound, N-{3-[3-cyclopropyl-5-(2-fluoro-4-iodo-phenylamino)-6,8-dimethyl-2,4,7-trioxo-3,4,6,7-tetrahydro-2H-pyrido[4,3-d]pyrimidin-1-yl]phenyl}acetamide]", "values": [{"measurement": "AR (Accumulation Ratio)", "setting": "2 mg (loading and continuous regimens), N 12", "result": "6.57 (36%)"}, {"measurement": "AR (Accumulation Ratio)", "setting": "2.5 mg (loading and continuous regimens), N 15", "result": "8.14 (42%)"}, {"measurement": "AR (Accumulation Ratio)", "setting": "3 mg (loading and continuous regimens), N 14", "result": "7.17 (64%)"}]}]}
